These are literature values, as cited in patent publication US5811405A, “Multiply fucosylated dicarboxylic acids possessing antiadhesive properties” (Hoechst Aktiengesellschaft, priority 1996, dated 1998).

One series addresses T1, E selectin (Homo sapiens, UniProt P16581).
T1 sequence (P16581 22-610): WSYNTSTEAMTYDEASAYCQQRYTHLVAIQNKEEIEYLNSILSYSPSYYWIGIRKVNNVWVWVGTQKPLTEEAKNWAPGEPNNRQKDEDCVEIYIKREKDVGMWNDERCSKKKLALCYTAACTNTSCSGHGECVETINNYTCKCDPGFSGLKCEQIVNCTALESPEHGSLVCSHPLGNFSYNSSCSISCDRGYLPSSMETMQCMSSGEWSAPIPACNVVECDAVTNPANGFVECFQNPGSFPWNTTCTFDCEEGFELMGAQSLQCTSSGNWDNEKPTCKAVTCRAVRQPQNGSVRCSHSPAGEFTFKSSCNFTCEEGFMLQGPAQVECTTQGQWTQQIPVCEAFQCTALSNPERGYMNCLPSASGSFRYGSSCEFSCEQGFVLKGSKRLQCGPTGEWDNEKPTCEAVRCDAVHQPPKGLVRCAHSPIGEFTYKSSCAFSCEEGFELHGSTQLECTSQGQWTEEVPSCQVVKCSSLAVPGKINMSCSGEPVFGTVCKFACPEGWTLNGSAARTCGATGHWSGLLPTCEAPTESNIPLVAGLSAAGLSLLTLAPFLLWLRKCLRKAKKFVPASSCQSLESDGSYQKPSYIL
As to conditions: HL-60 and U-937 cells; Dasgupta et al., 5/94; read-out: IC50 for inhibiting adhesion of HL-60 and U-937 cells, E selectin; cited from earlier work.

In series [1] the test system is P selectin-dependent lung injuries. The following applies: M. S. Mulligan et al., 1993; cited from earlier work.

With sialyl Lewis X [SLeX], the IC50 at E selectin is 1.2 to 2 mM. Further, the “use in animal experiments, P selectin-dependent lung injuries” value in series [1] was “used successfully”.
